Only a part is listed here, and it is no random draw. Activity calls are given as the source filed them. No stated cut-off is given here; in the data, active means inhibition above about 25%; inactive means the rest.

The assay in a line: unspecified inhibition readout at 50 µM (AID 740). Conditions: unspecified screen, stronger effect = higher value.
One may read the inhibition as the share of the control response that was lost under treatment. Regarding `CCOP1(=S)c2c(C)nn(CCC#N)c2N=C(c2ccccc2F)N1C` (stereo not given), the inhibition was inactive: 0.69%.

Consider `Clc1n[nH]nc1-c1nn[nH][15n]1`, for which the inhibition is inactive: 0.26%.

Take `O=P1(Nc2ccccn2)COc2ccccc2OC1`: the inhibition was inactive: 0.45%.

Turning to `Cc1ccc(OCC(=O)OC2CN3CCC2CC3)cc1` (stereo not given), the inhibition was inactive: 0.44%.

For `O=P1(Nc2ncccn2)COc2ccccc2OC1`, the inhibition was inactive: 1.07%.

With `O=C(COc1ccccc1)OC1CN2CCC1CC2` (stereo not given), the inhibition was inactive: 0.98%.

For `COP1(=S)c2c(C)nn(CCC#N)c2N=C(c2ccc(F)cc2)N1C` (stereo not given), the inhibition was inactive: 0.32%.

As for `CCOP(=O)(Nc1ccccc1)OCC`, the inhibition was inactive: 0.03%.

`Cc1c2non([O-])c-2c(C)[n+](=O)[n+]1[O-]`: the inhibition was inactive: 0.07%.

In the case of `Oc1ccccc1CNc1ccccn1`, the inhibition is inactive: 1.06%.

With `CC(=O)N1C2C3N(C(C)=O)C1C1N(C(C)=O)C(C(N1C(C)=O)N3C(C)=O)N2C(C)=O`, the inhibition is inactive: 0.53%.

Regarding `O=[N+]([O-])c1cccc2n[nH]nc12`, the inhibition was inactive: 0.02%.

With `O=P(Nc1nccs1)(c1ccccc1)c1ccccc1`, the inhibition is inactive: 0.58%.

As for `CCC(=O)N1C2C3N(C(=O)CC)C1C1N(C(=O)CC)C(C(N1C(=O)CC)N3C(=O)CC)N2C(=O)CC`, the inhibition was inactive: 0.71%.

Consider `COC(=O)c1cc2c(s1)N=C(c1ccccc1)N(C)P2(=O)N1CCOCC1` (stereo not given), for which the inhibition was inactive: 0.37%.

The values above are taken from PubChem BioAssay AID740 (SRMLSC, 2007).
